Laboratory results as given in patent publication US20230183748A1, “Use of FOXP3 Enhancers to Modulate Regulatory T Cells” (St. Jude Children's Research Hospital, Inc., priority 2021, published 2023).

System: Foxp3 expression in iTreg cells
Test: Stability of Foxp3 expression in iTreg cells in vitro
Assay type: cell-based, mouse
Conditions: without ASC treatment; high levels of IL-2; WT and ΔCNS3 iTreg cells (not ΔCNS0 or ΔCNS0,3); 4 days in fresh media without TGF-β
Description: Treg Cell Induction and Stability Assay. Induction of Treg cell differentiation in vitro was conducted according to established protocols (Feng et al. (2015) Nature 528:132-136; Yue et al. (2016) J. Exp. Med. 213:377-397). Briefly, cell culture plates or dishes were precoated with 1 μg/ml anti-CD3 (Bio X Cell) and anti-CD28 (Bio X Cell) antibodies in PBS at 37° C. for 2 hours and washed with PBS once before cell culture. CD4 Tn cells were grown in complete RPMI1640 supplemented with 100 U/ml recombinant human IL-2 (PeproTech) and 1 ng/ml recombinant human TGF-β (R&D Systems) with or without 0.25 mM ascorbic acid (ASC)-2-phosphate (Sigma) for 4 days.
To assess the stability of Foxp3 expression in vitro, in vitro Treg (iTreg) cells, sorted based on GFP-Foxp3 expression after 4 days of induction, were further cultured on plates coated with both anti-CD3 (1 μg/ml) and anti-CD28 (1 μg/ml) antibodies and either recombinant human IL-2 or 25 μg/ml IL-2 neutralization antibodies (Bio X Cell) for 4 days more. […]
To test whether ΔCNS0,3 could also destabilize Foxp3 expression, the stability of Foxp3 expression was assessed in control and ASC-treated iTreg cells, which stabilize Foxp3 expression through Tet-dependent DNA demethylation (Yue et al. (2016) J. Exp. Med. 213:377-397). […]

IL-2: recombinant human IL-2 (PeproTech) added to T cell culture
iTreg cells in which Foxp3 expression was maintained: 40%-50%
